The text below walks through data of patent US20260055126A1, “SMALL MOLECULE COMPOUNDS WITH PHOSPHORYLATED ARYL STRUCTURES AND USE THEREOF” (HANGZHOU PHECDAMED CO., LTD., priority 2022, published 2026).

By UniProt entry, the sequences of proteins in these tests, tags left out. Residues count along the entry.
UniProt Q15562, 218-447 limits assumed: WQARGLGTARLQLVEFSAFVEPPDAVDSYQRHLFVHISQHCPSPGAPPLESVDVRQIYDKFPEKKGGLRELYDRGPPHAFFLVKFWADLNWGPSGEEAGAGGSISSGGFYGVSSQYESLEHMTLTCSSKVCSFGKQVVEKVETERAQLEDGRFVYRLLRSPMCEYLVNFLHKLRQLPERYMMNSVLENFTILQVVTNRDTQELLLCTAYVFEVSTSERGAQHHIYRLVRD
UniProt Q15562, whole entry: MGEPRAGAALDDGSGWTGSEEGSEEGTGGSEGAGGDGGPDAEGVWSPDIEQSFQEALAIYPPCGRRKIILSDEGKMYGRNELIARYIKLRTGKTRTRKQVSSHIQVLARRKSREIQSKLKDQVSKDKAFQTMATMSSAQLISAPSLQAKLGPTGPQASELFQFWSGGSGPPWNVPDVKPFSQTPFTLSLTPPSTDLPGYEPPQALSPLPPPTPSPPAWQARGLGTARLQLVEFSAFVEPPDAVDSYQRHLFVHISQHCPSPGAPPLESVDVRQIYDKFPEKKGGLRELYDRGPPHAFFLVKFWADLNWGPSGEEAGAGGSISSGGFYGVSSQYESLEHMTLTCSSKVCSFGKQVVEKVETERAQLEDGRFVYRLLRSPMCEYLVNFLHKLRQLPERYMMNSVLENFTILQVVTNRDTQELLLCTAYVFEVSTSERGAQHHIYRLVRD
UniProt P28347, whole entry: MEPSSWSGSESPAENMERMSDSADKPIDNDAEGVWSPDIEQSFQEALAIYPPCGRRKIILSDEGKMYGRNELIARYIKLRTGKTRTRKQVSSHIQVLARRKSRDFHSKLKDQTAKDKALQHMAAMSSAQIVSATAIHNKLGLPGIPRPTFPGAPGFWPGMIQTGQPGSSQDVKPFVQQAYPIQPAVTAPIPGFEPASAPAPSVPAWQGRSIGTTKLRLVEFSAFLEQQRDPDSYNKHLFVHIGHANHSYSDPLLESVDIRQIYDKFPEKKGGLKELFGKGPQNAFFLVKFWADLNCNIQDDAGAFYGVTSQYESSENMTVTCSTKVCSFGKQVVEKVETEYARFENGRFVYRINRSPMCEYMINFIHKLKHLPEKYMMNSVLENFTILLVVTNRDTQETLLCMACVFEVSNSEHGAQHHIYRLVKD
UniProt Q99594, 218-435 limits assumed: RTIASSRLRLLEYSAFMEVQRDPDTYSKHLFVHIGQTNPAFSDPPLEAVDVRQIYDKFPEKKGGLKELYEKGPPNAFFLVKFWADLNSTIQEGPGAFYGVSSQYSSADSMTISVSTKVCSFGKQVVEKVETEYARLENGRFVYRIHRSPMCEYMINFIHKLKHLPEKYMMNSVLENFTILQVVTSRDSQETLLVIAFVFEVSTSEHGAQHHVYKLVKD
UniProt Q99594, whole entry: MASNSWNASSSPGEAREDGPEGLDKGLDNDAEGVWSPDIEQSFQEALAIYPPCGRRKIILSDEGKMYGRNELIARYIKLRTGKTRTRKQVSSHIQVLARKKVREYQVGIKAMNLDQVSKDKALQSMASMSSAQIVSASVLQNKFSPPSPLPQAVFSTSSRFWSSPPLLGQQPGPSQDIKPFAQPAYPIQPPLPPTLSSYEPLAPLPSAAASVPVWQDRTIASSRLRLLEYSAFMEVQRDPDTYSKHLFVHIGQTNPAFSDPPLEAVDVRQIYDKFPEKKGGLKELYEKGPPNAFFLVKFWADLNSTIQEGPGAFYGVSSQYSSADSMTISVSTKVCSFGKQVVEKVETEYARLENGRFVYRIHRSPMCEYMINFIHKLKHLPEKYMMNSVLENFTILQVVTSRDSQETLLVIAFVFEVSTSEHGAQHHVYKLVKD
UniProt Q15561, whole entry: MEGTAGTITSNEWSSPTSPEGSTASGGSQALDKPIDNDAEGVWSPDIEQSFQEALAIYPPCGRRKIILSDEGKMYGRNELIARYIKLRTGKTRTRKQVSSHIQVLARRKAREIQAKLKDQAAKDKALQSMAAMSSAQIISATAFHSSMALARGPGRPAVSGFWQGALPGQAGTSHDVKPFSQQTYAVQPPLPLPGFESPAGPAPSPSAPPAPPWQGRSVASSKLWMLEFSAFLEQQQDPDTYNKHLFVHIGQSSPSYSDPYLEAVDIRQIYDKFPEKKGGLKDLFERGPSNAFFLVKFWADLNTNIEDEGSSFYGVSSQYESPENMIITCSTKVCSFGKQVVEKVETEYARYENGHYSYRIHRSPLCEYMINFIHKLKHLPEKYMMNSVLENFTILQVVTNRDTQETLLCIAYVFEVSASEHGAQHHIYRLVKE
UniProt Q15561, 217-434 limits assumed: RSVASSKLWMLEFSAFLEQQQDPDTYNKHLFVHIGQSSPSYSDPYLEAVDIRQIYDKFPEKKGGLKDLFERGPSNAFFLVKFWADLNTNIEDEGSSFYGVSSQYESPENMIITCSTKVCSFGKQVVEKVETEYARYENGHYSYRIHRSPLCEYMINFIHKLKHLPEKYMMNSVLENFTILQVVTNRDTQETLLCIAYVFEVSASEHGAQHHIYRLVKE

A word on the IC50: it is the midpoint of a concentration-inhibition curve.

For experiment [1], the target named is recombinant TEAD2 protein central pocket (Homo sapiens (Human), UniProt Q15562). Description: Competitive thiol binding assay (CPM assay), TEAD2. To be noted: read-out: IC50, TEAD2, 150 nM recombinant TEAD protein, 150 nM CPM.
The subject of experiment [2] is recombinant TEAD1 protein (194-411, Uniprot ID: P28347). Description: Thermal shift assay (protein melting point curve), TEAD1. The arrangement: key to the marks not given beside the values. As to conditions: 10 μM TEAD protein, 50 μM test compound.
Experiment [3] has as its target recombinant TEAD1 protein central pocket (Homo sapiens (Human), UniProt P28347). Description: Competitive thiol binding assay (CPM assay), TEAD1. As to conditions: read-out: IC50, TEAD1, 150 nM recombinant TEAD protein, 150 nM CPM.
The test system of a further experiment is TEAD family proteins. Description: Thermal shift assay, summary over all TEAD subtypes. To be noted: summary of Table 1.
For experiment [4], the target named is recombinant TEAD3 protein central pocket (Homo sapiens (Human), UniProt Q99594). Description: Competitive thiol binding assay (CPM assay), TEAD3. As to conditions: read-out: IC50, TEAD3, 150 nM recombinant TEAD protein, 150 nM CPM.
In experiment [5] the target is recombinant TEAD4 protein (217-434, Uniprot ID: Q15561) (Homo sapiens (Human), UniProt Q15561). Description: Thermal shift assay (protein melting point curve), TEAD4. The experiment is classed as binding. Also noted: key to the marks not given beside the values. As to conditions: 10 μM TEAD protein, 50 μM test compound.
Experiment [6] deals with recombinant TEAD4 protein central pocket (Homo sapiens (Human), UniProt Q15561). Description: Competitive thiol binding assay (CPM assay), TEAD4. To be noted: read-out: IC50, TEAD4, 150 nM recombinant TEAD protein, 150 nM CPM.
For experiment [7], the target named is recombinant TEAD3 protein (218-435, Uniprot ID: Q99594) (Homo sapiens (Human), UniProt Q99594). Description: Thermal shift assay (protein melting point curve), TEAD3. The class given is binding. The arrangement: key to the marks not given beside the values. To be noted: 10 μM TEAD protein, 50 μM test compound.
The target of experiment [8] is recombinant TEAD2 protein (218-447, Uniprot ID: Q15562) (Homo sapiens (Human), UniProt Q15562). Description: Thermal shift assay (protein melting point curve), TEAD2. The class given is binding. Also noted: key to the marks not given beside the values. As to conditions: 10 μM TEAD protein, 50 μM test compound.

On to `CP(C)(=O)c1ccc(NC2CCC(C(F)(F)F)CC2)c(-c2ncccn2)c1` (stereo not drawn), for which the half-maximal inhibitory concentration (IC50) in experiment [1] turned out to be 380 nM; in experiment [3], 220 nM; in [4], 490 nM; in [6] it was 180 nM. Further, the “Δ T m (TEAD1)” value in experiment [2] is recorded as “+++”. The “binding ability to each subtype of TEAD family proteins” value (from here on “binding ability to each subtype”) in the experiment with TEAD family proteins was “good binding abilities”. Further, the “Δ T m (TEAD4)” value in experiment [5] is given as “++++”. In addition, the “Δ T m (TEAD3)” value in experiment [7] was “+++”. Also, the “Δ T m (TEAD2)” value in experiment [8] is on record as “+++”.

Take `C=CP(=O)(C=C)c1ccc(Nc2ccc(C(F)(F)F)cc2)c(-c2nccc(OC3COC3)n2)c1`: the “Δ T m (TEAD1)” value in experiment [2] was “++++”. Besides, the “binding ability to each subtype” value in the experiment with TEAD family proteins is given as “good binding abilities”. For the same molecule, the “Δ T m (TEAD3)” value in experiment [7] is on record as “++”. Also, the “Δ T m (TEAD2)” value in [8] is recorded as “+++”.

`Cn1cnc(-c2cc(P(C)(C)=O)ccc2Nc2ccc(C(F)(F)F)cc2)n1`: in experiment [2], the “Δ T m (TEAD1)” value was “++++”. Also, the “binding ability to each subtype” value in the experiment on TEAD family proteins is recorded as “good binding abilities”.
